Results published in patent US6352722B1, “Derivatized carbohydrates, compositions comprised thereof and methods of use thereof” (Quadrant Holdings Cambridge Limited, priority 1997, dated 2002).

Assay: Glass transition temperature (Tg) of derivatized carbohydrates, by DSC
Format: physicochemical
Settings: derivatized carbohydrate alone, Tables 1-4
From the text: The reaction product can be characterized structurally by methods known in the art, including, but not limited to, nuclear magnetic resonance spectroscopy (NMR) and its material science properties characterized by differential scanning calorimetry (DSC). The characteristic melting points and Tgs (glass transition temperatures) for the derivatized carbohydrates can also be determined by DSC and other methods known in the art.
The carbohydrate derivatives were routinely synthesized by standard esterification of the carbohydrate with the chloride of the desired hydrocarbon side chain under anhydrous conditions and the resulting derivatives purified by standard techniques of solvent extraction and re-crystallization. For example, trehalose octa-3,3-dimethylbutyrate was synthesized by reacting 3,3,-dimethylbutyroyl chloride with trehalose in anhydrous pyridine, followed by extraction with ether, hydrochloric acid, potassium carbonate solution and water and finally re-crystallized twice from alcohol to yield colorless, needle-like crystals (˜80% yield) of m.pt 138-140° C., αD 112°. Trehalose hexa-3,3-dimethylbutyrate (THEX) can be prepared by protecting the 6,6′-hydroxy group of trehalose with a bulky group such as trityl or t-butyldiphenylsilyl, for example by heating trehalose and trityl chloride in pyridine. […]

Trehalose tetra-3,3-dimethylbutyrate
Tg(° C.): 82 °C
